PMC2855520, “Anti-infective activity of apolipoprotein domain derived peptides in vitro: identification of novel antimicrobial peptides related to apolipoprotein B with anti-HIV activity” (BMC Immunology, 2010)

How the values were obtained:
[1] = tested on: Pseudomonas aeruginosa (ATCC 9027)
HSV1 = conditions: 1 h

## CC(C)C[C@H](NC(=O)[C@H](CC(C)C)NC(=O)[C@H](CCCNC(=N)N)NC(=O)[C@H](CCCCN)NC(=O)[C@H](CCCNC(=N)N)NC(=O)[C@H](CC(C)C)NC(=O)[C@H](CCCCN)NC(=O)[C@H](CCCNC(=N)N)NC(=O)[C@H](CC(C)C)NC(=O)[C@H](Cc1c[nH]cn1)NC(=O)[C@H](CO)NC(=O)[C@H](C)NC(=O)[C@H](CC(C)C)NC(=O)[C@H](CCCNC(=N)N)NC(=O)[C@@H](NC(=O)[C@H](CCCNC(=N)N)NC(=O)[C@H](CC(C)C)NC(=O)[C@H](CCC(=O)O)NC(=O)[C@H](CCC(=O)O)NC(=O)[C@@H](NC(=O)[C@H](CO)NC(=O)[C@@H](N)CCC(N)=O)[C@@H](C)O)C(C)C)C(=O)O [apoE128-149]
[1]
  IC50: 54 µM
HSV1
  IC50: 36.5 µM
